Measured values taken from patent publication EP0591583B1, “Benzo (f) quinolinones as 5-alpha-reductase inhibitors” (ELI LILLY AND COMPANY, priority 1992, dated 1994).

Target: T1, 5α-reductase (Homo sapiens, UniProt P18405)
T1 construct: host or cells: Hs68 human genital skin fibroblasts
T1 sequence (P18405 1-259): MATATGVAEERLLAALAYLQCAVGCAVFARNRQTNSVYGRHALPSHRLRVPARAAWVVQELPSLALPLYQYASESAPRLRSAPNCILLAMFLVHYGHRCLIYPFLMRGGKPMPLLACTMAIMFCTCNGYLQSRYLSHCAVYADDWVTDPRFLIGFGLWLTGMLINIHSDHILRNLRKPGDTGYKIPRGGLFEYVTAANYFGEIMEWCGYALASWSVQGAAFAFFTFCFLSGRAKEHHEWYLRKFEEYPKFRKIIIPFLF
Test: 5α-Reductase activity in Hs68 human genital skin fibroblasts (conversion of labeled testosterone, TLC analysis)
Assay type: cell-based
Settings: Hs68, test compound 0.316 µM; Hs68 cells; substrate testosterone 12 µM; incubated four hours
Protocol: Cell Culture: 5α-Reductase activity was measured using Hs68 human genital skin fibroblasts which were originally purchased from the American Type Culture Collection (Rockville, MD). The cells were grown in Dulbecco's Modified Eagle's Medium (DMEM) plus 10% stripped fetal bovine serum which was supplemented with amphotericin B ([…]) and gentamicin ([…]) (GIBCO, Grand Island, NY). The serum was stripped of endogenous steroids by incubation with dextran-coated charcoal prior to its addition to the media. The cells were maintained at 37°C in an atmosphere of 95% air, 5% CO2 and were passaged every 7-10 days by exposure to a trypsin-EDTA solution (0.025% trypsin, 0.265 mM EDTA). […]
At the end of the incubation the media was collected and transferred to an extraction tube containing 5 ml of toluene-ethanol (9:1), to which has been added 20-250 µg each of unlabeled carrier steroids (estriol, estradiol, estrone, 5α-androstan-3α,17β-diol, 5α-androstan-3β,17β-diol, 4-androstene-3,17-dione, 5α-androstan-3,17-dione, testosterone, and 5α-dihydrotestosterone) (Steraloids, Inc., Wilton, NH). […] The [^14C]-steroids were included as recovery standards to quantify procedural losses. […] The organic phase was collected and the samples taken to dryness, redissolved in dichloromethane-methanol (9:1) and were analyzed by thin layer chromatography using one of the methods described below. […]

CN1C(=O)C=C[C@]2(C)c3ccc(Cl)cc3CC[C@@H]12 [Example 60, (R)(+)-trans-4-methyl-8-chloro-10b-methyl-3,4,4a,5,6,10b-hexahydrobenzo[f]quinolin-3-one]
inhibition at 0.316 µM: 86.7%
